Reference: ChEMBL document CHEMBL3826898, “Oxa-Pictet-Spengler reaction as key step in the synthesis of novel σ receptor ligands with 2-benzopyran structure” (Bioorg Med Chem, 2016)

Test: Displacement of [3H]di-o-tolylgluanidine from sigma 2 receptor in rat liver membranes at 1 uM after 2 hrs by scintillation counting
Conditions: Membrane

COC(=O)C[C@@H]1Cc2ccccc2[C@H](CCN2CCCCC2)O1 (racemic)
inhibition: 0%
